{
  "source": "patent US4113858A",
  "about": "“Novel compounds, compositions and methods of their use” (St. Luke's Hospital, priority 1976, dated 1978)",
  "test_system": "Guinea Pigs",
  "details": "Group 6: challenge 150 μg BP; 2.5 mg daily for 10 days from the day hind leg paralysis is observed; listed as compound (V)",
  "note": "Ends that are not written are not given here.",
  "data": [
    {"sequence": "FSWQKFSWQKFSWQKFSWQKG [Compound V, H -- Phe -- Ser -- Trp -- Gln -- Lys]4 Gly -- OH]", "values": [
      {"measurement": "Reversal clinical EAE", "result": "sufficient to reverse tremor and hind leg paralysis in addition to lethargy and weight loss in the five treated animals"}
    ]}
  ]
}
